Molecular target: Human CD33 S128N (human, UniProt P20138 18-259)
Assay: SPR captured Fab

Protein sequences, listed by entry. Tags and fused reporters are not part of them. Residues count along the entry.
UniProt P20138, 18-259 S128N: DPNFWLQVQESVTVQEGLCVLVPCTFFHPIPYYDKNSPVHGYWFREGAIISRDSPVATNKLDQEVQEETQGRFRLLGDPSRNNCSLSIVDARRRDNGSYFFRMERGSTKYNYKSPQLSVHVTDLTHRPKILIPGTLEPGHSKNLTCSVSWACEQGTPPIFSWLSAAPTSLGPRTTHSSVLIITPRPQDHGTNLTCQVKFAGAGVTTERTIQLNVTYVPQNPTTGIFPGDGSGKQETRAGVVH

Kd: 0.187 µM
koff: 0.0342 s⁻¹
kon: 183000 M⁻¹ s⁻¹
B1: ADI-10173 Fab (Fab, V domains shown)
VH: QVQLVQSGAEVKKPGASVKVSCKASGYTFTSYYMHWVRQAPGQGLEWMGIINPSGGSTTYAQKFQGRVTMTRDTSTSTVYMELSSLRSEDTAVYYCAREAADGFVGERYFDLWGRGTLVTVSS
VL: not shown
notes: Fab fragment; also called Ab22
